# Assay results as given in US20080242557A1, “System For Detecting Molecular Interactions” (CGK CO., LTD., priority 2004, published 2008).
# System: IκBα phosphorylation (IKK)
# Test: Detection of IκBα phosphorylation: translocation of IκBα-mRFP with anti-phospho-IκBα (Ser32)-MNPs in HeLa cells
# Type: cell-based
# Details: HeLa cells treated with various chemical compounds and growth factors
substance,measurement,value
IL-2: one of the chemical compounds and growth factors tested as interaction activator,translocation of the IκBα-mRFP fusion protein under the magnetic field (interaction activator screening),observed to translocate the IκBα-mRFP fusion protein
